Measured values as given in publication doi:10.1101/2020.11.25.399204.

Biological target: protein kinase A (PKA) (mouse) (UniProt P05132)

full length mouse PKIα (from UniProt P63248 1-76) (natural protein)
IC50 of inhibition of PKA kinase activity (dose-response, Z'-LYTE, cell-free): 0.11 nM
